Laboratory results from patent US20030198661A1, “Antioxidant compositions and methods for companion animals” (MARS INCORPORATED, priority 2000, published 2003).

Conditions: dog, in vivo

Structure (SMILES): Cc1c(C)c2c(c(C)c1O)CC[C@@](C)(CCC[C@H](C)CCC[C@H](C)CCCC(C)C)O2 [α-tocopherol]
- individual plasma α-tocopherol levels, range: 9 to 39.2 mg/L
